Values of other authors as cited in US20190144909A1, “METHODS OF MODULATING BCKDH” (NESTEC S.A., priority 2016, published 2019).

Tested on: branched-chain alpha-keto acid dehydrogenase kinase (BCKDH kinase)

O=S(=O)([O-])[O-].[Cu+2] [Copper Sulfate]
Interaction Actions: decreases expression
